Measured affinities in a library of Ab-14 light chain variants

Target: peptide PDVDLGDISGINAS, taken from heptad repeat 2 (HR2) of SARS-CoV-2 spike.

Each scFv is VH, a (GGGGS)3 linker, VL, as in the parent Ab-14, and differs from it in the CDRs of the light chain only.
VH: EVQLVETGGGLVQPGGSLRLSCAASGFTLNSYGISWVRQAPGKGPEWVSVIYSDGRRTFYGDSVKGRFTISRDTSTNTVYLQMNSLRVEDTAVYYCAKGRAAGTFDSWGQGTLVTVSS
VL: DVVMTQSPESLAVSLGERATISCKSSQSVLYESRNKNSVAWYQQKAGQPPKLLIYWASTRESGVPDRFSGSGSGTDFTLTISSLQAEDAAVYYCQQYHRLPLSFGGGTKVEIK

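The starting antibody came from a phage panning campaign against this peptide. Variants in AAYL50 differ from the parent at up to three CDR positions; double and triple changes were sampled at random. AlphaSeq pools MATa yeast showing the antibodies with MATalpha yeast showing the peptide. Pairs that bind mate more often; barcode pairs of the diploids are counted by sequencing. Scores were corrected for input abundance and mapped to Kd with protein pairs of known affinity run in the same pool. Each pool was mated in three replicate cultures.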

Positions count from residue 1 of the parent VL; Y31G puts G in place of Y.
Numbers give log10(Kd / nM), so 0 is 1 nM and 3 is 1 µM. Smaller is tighter.
A mean of the replicates is given; it leaves out those without a signal.
A pair that was not seen in that replicate is written "n.d."; this usually means weak binding, but a binder can also be missed.

changes	replicates, log10 nM	mean, log10 nM	control signals
Y31G+T59D+L100N	1.72 / 1.55 / 1.81	1.69	2 of 9 (4.63)
Q27F+Y31E+S58A	0.35 / 0.71 / 0.66	0.57	1 of 9 (3.27)
S28C+L30Q+Q96Y	2.58 / 2.47 / 2.55	2.53	1 of 9 (5.48)
S38Y+V39Y+A40M	n.d. / n.d. / n.d.	n.d.	0 of 9
R34P+R99H+L102A	n.d. / n.d. / n.d.	n.d.	1 of 9 (2.77)
S38L+Q96I+L100G	4.97 / n.d. / n.d.	4.97	0 of 9
W56K+T59D+Q95I	n.d. / n.d. / n.d.	n.d.	2 of 9 (3.66)
Q27N+Q96K+L102A	n.d. / 4.12 / n.d.	4.12	1 of 9 (4.44)
S26F+S38D	2.96 / 3.65 / 3.71	3.44	4 of 9 (4.44)
Y31T+S33C+T59W	1.76 / 2.04 / 2.89	2.23	0 of 9
S25L+Y97P+L102P	-0.43 / -0.04 / -0.27	-0.25	4 of 9 (3.81)
E32T+L102D	2.71 / 2.65 / 2.59	2.65	2 of 9 (4.84)
Y31L+K36H+R99T	0.77 / 0.97 / 0.88	0.87	1 of 9 (4.34)
S58Y+S62M	1.49 / 1.43 / 1.35	1.42	1 of 9 (4.62)
Q27G+S38G+H98L	2.26 / 2.28 / 2.62	2.39	1 of 9 (3.50)
R60L+S62T	2.81 / 2.88 / 2.69	2.80	1 of 9 (3.42)
R34K+N37F+S38T	n.d. / n.d. / n.d.	n.d.	0 of 9
S25D+R34Q+S103M	0.93 / 1.10 / 1.14	1.06	1 of 9 (3.50)
W56H+T59C+Q95K	1.94 / 1.83 / 2.36	2.05	3 of 9 (4.10)
Q27V+S28K	1.30 / 1.49 / 1.44	1.41	2 of 9 (4.37)
S26M+K36F	1.62 / 1.59 / 1.70	1.64	0 of 9
R60P+E61Y+P101C	3.43 / n.d. / n.d.	3.43	1 of 9 (3.85)
S33T+R34H+W56V	1.16 / 1.22 / 1.57	1.32	2 of 9 (3.79)
Q27S+S62K+H98L	1.70 / 1.67 / 2.00	1.79	3 of 9 (3.66)
L30G+Y31P+Q95K	n.d. / n.d. / n.d.	n.d.	1 of 9 (3.93)
K36P+V39S+H98P	n.d. / n.d. / n.d.	n.d.	3 of 9 (4.80)
Q96K	n.d. / n.d. / n.d.	n.d.	0 of 9
T59L+R60F+Q96P	5.29 / 3.79 / n.d.	4.54	3 of 9 (4.58)
S58I+H98V	4.11 / 3.95 / 3.37	3.81	0 of 9
E32W+V39Y+E61H	4.29 / 3.60 / n.d.	3.94	2 of 9 (4.25)
Q27F+L30F+A57F	n.d. / n.d. / n.d.	n.d.	1 of 9 (2.82)
S28D+Y31A+T59S	0.90 / 1.17 / 1.24	1.10	4 of 9 (3.81)
Q27C+R99W+P101K	1.23 / 1.24 / 1.24	1.24	0 of 9
N35H+T59H+Y97T	5.83 / n.d. / n.d.	5.83	2 of 9 (4.65)
S28R+L100D	1.12 / 1.49 / 1.35	1.32	1 of 9 (4.14)
Y31H+S58R+L102V	2.44 / 2.47 / 2.64	2.52	3 of 9 (5.16)
K24I+S26E+L102Y	1.77 / 1.32 / 1.39	1.49	1 of 9 (2.71)
K24W+E32C+P101N	n.d. / n.d. / n.d.	n.d.	0 of 9
K24W+E32M+S62T	3.91 / 3.53 / 4.57	4.00	4 of 9 (4.93)
S33A+K36E+V39E	4.50 / n.d. / n.d.	4.50	4 of 9 (4.26)
K24F+N35G	n.d. / n.d. / n.d.	n.d.	1 of 9 (2.57)
N35T+S58A+H98A	1.99 / 1.91 / 1.84	1.91	4 of 9 (4.69)
S28Y+K36R+P101S	n.d. / 3.11 / 6.30	4.71	3 of 9 (4.34)
S33V+N37Q+H98G	1.57 / 1.72 / 1.74	1.68	4 of 9 (4.70)
S26H	1.22 / 1.27 / 1.06	1.18	2 of 9 (4.48)
S26A+S28H+S62M	1.91 / 1.78 / 2.24	1.97	0 of 9
L30P+Y31Q+R60M	n.d. / n.d. / 2.34	2.34	0 of 9
S26M	1.09 / 1.18 / 1.16	1.14	6 of 9 (4.23)
N37F+E61D+L100R	n.d. / n.d. / n.d.	n.d.	0 of 9

As a blank, each scFv also met three strains without target: over library AAYL50, 18% of these pairings were detected, typically at 4.19 and seldom below 2.99. The control count says in how many pairings with the empty strains this scFv gave a signal, with their mean in brackets.

Source: Engelhart et al. 2022 (doi:10.1038/s41597-022-01779-4), MIT Lincoln Laboratory and A-Alpha Bio; data file from the FLAb repository.